Experiments:
[1] = tested on: operated rats (plantar incision)

Question: How did the “enhancement of allodynia induced by perioperative fentanyl” value ([1]; sigma ligand 20 mg/kg on day 0, paradigm 2, fentanyl 0.16 mg/kg x 3) turn out when `Cc1cc(OCCN2CCOCC2)nn1-c1ccc2ccccc2c1` [compound n° 63, 4-{2-[5-Methyl-1-(naphthalen-2-yl)-1H-pyrazol-3-yloxy]ethyl}morpholine] was run?
Answer: strongly reduced

Question: What about the “enhancement of allodynia induced by perioperative sufentanil” value ([1]; sigma ligand 20 mg/kg on day 0, paradigm 2, sufentanil 0.05 mg/kg x 3) of the same compound?
Answer: strongly reduced

Question: What about the “allodynia secondary to both surgery and opioid (Remifentanil) use” value ([1]; sigma ligand 40 and 80 mg/kg, paradigms 1 and 2) of the same compound?
Answer: inhibits allodynia

Question: And the “enhancement of allodynia induced by remifentanil administration” value (naïve rats; i.p. coadministration, remifentanil 0.3 mg/kg, sigma ligand 20, 40 and 80 mg/kg)?
Answer: reduces dose-dependently

Question: What about the “remifentanil-induced hyperalgesia (OIH)” value (naïve rats; sigma ligand 20 and 40 mg/kg, FIG. 7) of the same compound?
Answer: inhibitory effect on OIH is clear

Reference: patent US9789115B2 (priority 2010, dated 2017)
